{"source": "paper PMC4404408", "about": "(Journal of acquired immune deficiency syndromes (1999), 2014)", "key": {"[1]": {"experiment": "Safety / adverse events in the drug interaction study", "details": "arm B, diffuse rash soon after starting DRV/r only, 2 subjects"}, "[2]": {"experiment": "Phase I open-label drug interaction PK study, arm B"}, "[3]": {"details": "DRV/r 800/100 mg only, day 14, N=14"}, "[4]": {"details": "DRV/r 800/100 mg with pitavastatin 2 mg, day 18, N=14"}, "[5]": {"details": "DRV/r with pitavastatin / DRV/r only"}}}
{"substance": "darunavir/ritonavir [DRV/r]", "values": [{"measurement": "Rash, subjects", "setting": "[1]", "value": 9, "unit": "%"}, {"measurement": "DRV AUC0-τ, geometric mean", "setting": "[2]; [3]", "value": 70900, "unit": "ng·h/mL"}, {"measurement": "DRV Cmax, geometric mean", "setting": "[2]; [3]", "value": 6610, "unit": "ng/mL"}, {"measurement": "DRV AUC0-τ, geometric mean", "setting": "[2]; [4]", "value": 76700, "unit": "ng·h/mL"}, {"measurement": "DRV Cmax, geometric mean", "setting": "[2]; [4]", "value": 6780, "unit": "ng/mL"}, {"measurement": "DRV Tmax, median (IQR)", "setting": "[2]; DRV/r only, day 14, N=14", "value": "0.5 (0.5 to 0.5) h"}, {"measurement": "DRV AUC0-τ geometric mean ratio (90% CI)", "setting": "[2]; [5]", "value": "1.08 (0.96 to 1.22)"}, {"measurement": "DRV Cmax geometric mean ratio (90% CI)", "setting": "[2]; [5]", "value": "1.03 (0.91 to 1.15)"}]}
